Source: patent US12453782B2, “Antibody-oligonucleotide conjugate” (priority 2018, dated 2025)

Tested on: SK-BR-3 cells (HER2++)
Assay: Cell killing / cell viability in SK-BR-3 cells
Assay type: cell-based, human
Conditions: for cell killing: SK-BR-3 (HER2++), treated alone
Source text: Trastuzumab-(Cys-L-SO1861)^3,8(Lys-L-dianthin)^1,7 or trastuzumab-(Cys-L-SO1861)^3,8(Lys-S-dianthin)^1,7, were produced and tested for enhanced cell killing in SK-BR-3 (HER2^++) and MDA-MB-468 (HER2^−) cells as illustrated in FIG. 9.

Row | Substance | cell killing | cell growth inhibition (SK-BR-3, relatively high dose)
1 | Trastuzumab: HER2 targeting antibody | not observed | some effect on cell growth inhibition
2 | trastuzumab-(L-SO1861)^3,8: trastuzumab conjugated to SO1861-EMCH via cysteines | not observed | 
